From PubChem BioAssay AID556 (SRMLSC, 2006)
The entries are a selection whose mix differs from that of the whole data set. Calls of active or inactive are those of the source.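 How the source made its calls: active means the 320 compounds with the highest percent inhibition in the single-dose primary screen, excluding strongly autofluorescent ones (cut at about 32% in these data); inactive means the rest, inconclusive results apart.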

Tested on: diphosphomevalonate decarboxylase (Streptococcus pneumoniae D39)
Experiment: S. pneumoniae DPM-DC inhibitors, primary screen, biochemical, PK/LDH-coupled NADH fluorescence (AID 556);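 further: kinetic rate of NADH fluorescence loss reporting ADP formed by the decarboxylase; 0% = full reaction rate with carrier and 100% = no-substrate background rate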
Settings: purified DPM-DC, at 10 µM, stronger effect = higher value

Row | Structure (SMILES) | inhibition
1 | O=P(Nc1nccs1)(c1ccccc1)c1nc2ccccc2s1 (stereo unspecified) | active: 81%
